Protein sequences, listed by entry. Tags and fused reporters are not part of them.
UniProt O60674, whole entry: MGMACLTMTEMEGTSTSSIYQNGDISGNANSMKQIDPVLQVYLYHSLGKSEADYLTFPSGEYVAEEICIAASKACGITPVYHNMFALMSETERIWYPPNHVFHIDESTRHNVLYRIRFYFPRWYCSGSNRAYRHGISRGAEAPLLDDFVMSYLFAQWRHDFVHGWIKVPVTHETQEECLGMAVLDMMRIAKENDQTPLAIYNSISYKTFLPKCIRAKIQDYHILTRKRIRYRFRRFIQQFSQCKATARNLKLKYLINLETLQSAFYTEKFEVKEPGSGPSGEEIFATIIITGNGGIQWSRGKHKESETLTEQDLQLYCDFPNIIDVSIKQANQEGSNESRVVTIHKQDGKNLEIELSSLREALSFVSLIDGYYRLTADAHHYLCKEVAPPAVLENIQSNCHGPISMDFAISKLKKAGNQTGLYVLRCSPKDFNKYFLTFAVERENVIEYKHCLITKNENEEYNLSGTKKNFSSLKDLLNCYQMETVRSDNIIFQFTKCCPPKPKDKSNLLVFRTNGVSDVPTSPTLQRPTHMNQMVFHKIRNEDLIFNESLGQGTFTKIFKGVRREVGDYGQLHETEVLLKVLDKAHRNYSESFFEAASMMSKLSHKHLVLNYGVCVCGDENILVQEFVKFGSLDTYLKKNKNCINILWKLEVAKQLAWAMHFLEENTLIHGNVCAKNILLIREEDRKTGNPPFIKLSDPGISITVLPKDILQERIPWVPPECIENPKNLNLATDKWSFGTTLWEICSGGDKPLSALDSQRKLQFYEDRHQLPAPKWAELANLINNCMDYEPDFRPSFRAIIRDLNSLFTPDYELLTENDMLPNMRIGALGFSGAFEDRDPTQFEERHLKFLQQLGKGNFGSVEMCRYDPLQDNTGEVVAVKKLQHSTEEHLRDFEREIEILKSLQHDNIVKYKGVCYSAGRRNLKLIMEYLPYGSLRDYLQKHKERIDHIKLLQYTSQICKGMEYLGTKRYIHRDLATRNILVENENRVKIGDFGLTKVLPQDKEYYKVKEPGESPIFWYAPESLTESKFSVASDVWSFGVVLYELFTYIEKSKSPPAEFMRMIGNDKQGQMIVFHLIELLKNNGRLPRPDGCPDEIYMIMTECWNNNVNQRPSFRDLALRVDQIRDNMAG
UniProt P52333, whole entry: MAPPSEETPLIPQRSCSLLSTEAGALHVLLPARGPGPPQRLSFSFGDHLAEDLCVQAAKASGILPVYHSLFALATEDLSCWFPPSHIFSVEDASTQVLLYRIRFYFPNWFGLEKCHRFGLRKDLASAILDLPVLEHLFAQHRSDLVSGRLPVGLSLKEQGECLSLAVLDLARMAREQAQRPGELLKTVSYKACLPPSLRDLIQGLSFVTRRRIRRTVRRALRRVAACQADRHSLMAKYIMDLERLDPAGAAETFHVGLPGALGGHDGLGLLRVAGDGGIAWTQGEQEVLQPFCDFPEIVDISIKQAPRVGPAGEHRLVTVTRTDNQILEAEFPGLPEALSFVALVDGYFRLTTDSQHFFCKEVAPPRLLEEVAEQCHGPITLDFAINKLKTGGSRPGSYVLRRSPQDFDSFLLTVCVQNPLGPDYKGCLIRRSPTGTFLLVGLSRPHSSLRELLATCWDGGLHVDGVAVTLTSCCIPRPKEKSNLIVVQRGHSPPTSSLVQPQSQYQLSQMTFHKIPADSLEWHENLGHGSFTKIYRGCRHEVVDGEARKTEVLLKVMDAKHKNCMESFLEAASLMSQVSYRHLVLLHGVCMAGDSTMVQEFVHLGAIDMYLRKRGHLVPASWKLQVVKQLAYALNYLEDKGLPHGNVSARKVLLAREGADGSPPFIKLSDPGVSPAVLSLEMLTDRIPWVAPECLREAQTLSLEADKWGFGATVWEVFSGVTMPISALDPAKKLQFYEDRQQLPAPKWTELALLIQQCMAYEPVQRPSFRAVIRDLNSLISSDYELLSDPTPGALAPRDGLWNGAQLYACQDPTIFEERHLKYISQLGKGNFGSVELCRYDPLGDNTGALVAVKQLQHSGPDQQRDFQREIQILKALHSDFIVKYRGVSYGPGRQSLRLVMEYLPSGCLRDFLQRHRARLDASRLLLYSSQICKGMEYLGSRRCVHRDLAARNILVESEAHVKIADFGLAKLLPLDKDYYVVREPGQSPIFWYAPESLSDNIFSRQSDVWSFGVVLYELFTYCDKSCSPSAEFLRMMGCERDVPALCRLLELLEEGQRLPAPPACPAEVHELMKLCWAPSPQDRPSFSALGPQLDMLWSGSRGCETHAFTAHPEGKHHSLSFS

According to US8163732B2, “Tricyclic heteroaryl compounds useful as inhibitors of Janus kinase” (Vertex Pharmaceuticals Incorporated, priority 2005, dated 2012):

Tests used:
JAK-2 = JAK-2 (Homo sapiens, UniProt O60674); assay: JAK-2 inhibition assay; format: biochemical; details: read-out: JAK-2 Ki; Ki (app); 15 μM poly(Glu)4Tyr, 12 μM ATP, 25° C.
JAK-3 = JAK-3 (Homo sapiens, UniProt P52333); assay: JAK-3 inhibition assay; details: read-out: JAK-3 Ki; Ki (app); 1 μM poly(Glu)4Tyr, 5 μM ATP, 1 nM JAK-3, 25° C.

SMILES	Ki (JAK-2)	Ki (JAK-3)
CCOC(=O)C1(c2ccc(OC)cc2)Nc2ccccc2-c2ncnc3[nH]cc1c23 (stereo not drawn)	250 to 2500 nM	250 to 2500 nM
Oc1ccc(C2=Nc3ccccc3-c3ncnc4[nH]cc2c34)cc1	< 250 nM	< 250 nM
Oc1ccc([C@@H]2Nc3ccccc3-c3ccnc4[nH]cc2c34)c(Cl)c1	< 250 nM	< 250 nM
